pIC50: −log10 of the molar value. “And” between values parts separate entries of the source, which are not always exact repeats. Equal entries are not always repeated.
Biological target: T1, CHK1 (Homo sapiens, UniProt O14757)
T1 sequence (O14757 1-476): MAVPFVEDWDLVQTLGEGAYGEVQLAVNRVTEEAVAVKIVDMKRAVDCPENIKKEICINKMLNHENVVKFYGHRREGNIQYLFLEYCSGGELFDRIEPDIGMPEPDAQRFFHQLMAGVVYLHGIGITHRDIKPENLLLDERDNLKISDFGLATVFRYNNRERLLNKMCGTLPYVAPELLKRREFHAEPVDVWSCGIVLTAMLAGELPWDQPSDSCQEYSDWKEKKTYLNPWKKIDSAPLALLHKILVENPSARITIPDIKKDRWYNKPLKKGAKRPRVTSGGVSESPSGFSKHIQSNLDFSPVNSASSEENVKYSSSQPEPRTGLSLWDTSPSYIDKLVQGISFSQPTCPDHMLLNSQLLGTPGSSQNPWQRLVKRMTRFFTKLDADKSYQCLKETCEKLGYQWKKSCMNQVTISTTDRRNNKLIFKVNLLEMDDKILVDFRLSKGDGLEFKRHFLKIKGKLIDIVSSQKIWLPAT
Assay: CHK1 kinase function inhibition (DELFIA assay, phosphorylation of CDC25C peptide)
Format: biochemical
Conditions: CHK1 kinase function inhibition IC50, CHK1 1 nM, ATP 30 μM, 30 minutes at room temperature

Compound: N#Cc1cnc(Nc2cc3ccccc3cn2)cn1 [AA-002]
- pIC50: 5.00 to 6.00 and 5.74

Compound: N#Cc1cnc(Nc2cc3cccc(Cl)c3cn2)cn1 [AA-004]
- pIC50: ≥ 6.00

Compound: N#Cc1ncc(Nc2cc3ccccc3cn2)nc1OC1CCCNC1 (stereo not shown) [AA-015]
- pIC50: ≥ 6.00

Compound: N#Cc1cnc(Nc2cc3c(cn2)ncn3CC2CCNCC2)cn1 [BB-018, 5-(1-(piperidin-4-ylmethyl)-1H-imidazo[4,5-c]pyridin-6-ylamino)pyrazine-2-carbonitrile]
- pIC50: 5.00 to 6.00
